Test results taken from patent US20090263341A1, “SOFT ANTICHOLINERGIC ESTERS” (priority 2005, published 2009).
Where “and” joins values, the source holds several entries; their conditions need not be identical. Identical values can stand only once.

The chains behind the UniProt entries cited, without tags or fusion partners. Where a name states a change or a piece, a line headed by the entry shows the natural chain unless it says otherwise.
UniProt P08482: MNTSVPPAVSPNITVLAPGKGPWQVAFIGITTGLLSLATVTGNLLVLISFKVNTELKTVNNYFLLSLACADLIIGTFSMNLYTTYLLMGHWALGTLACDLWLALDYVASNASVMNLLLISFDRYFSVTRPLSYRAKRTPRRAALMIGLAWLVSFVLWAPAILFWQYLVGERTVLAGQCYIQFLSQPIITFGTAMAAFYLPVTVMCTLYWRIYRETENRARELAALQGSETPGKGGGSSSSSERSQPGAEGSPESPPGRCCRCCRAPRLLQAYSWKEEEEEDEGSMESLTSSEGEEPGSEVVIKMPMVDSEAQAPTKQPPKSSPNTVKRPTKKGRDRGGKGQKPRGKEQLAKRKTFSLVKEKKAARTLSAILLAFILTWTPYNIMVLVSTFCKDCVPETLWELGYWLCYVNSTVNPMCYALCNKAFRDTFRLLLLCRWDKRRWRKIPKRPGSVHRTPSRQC
UniProt P08172, whole entry, looked up: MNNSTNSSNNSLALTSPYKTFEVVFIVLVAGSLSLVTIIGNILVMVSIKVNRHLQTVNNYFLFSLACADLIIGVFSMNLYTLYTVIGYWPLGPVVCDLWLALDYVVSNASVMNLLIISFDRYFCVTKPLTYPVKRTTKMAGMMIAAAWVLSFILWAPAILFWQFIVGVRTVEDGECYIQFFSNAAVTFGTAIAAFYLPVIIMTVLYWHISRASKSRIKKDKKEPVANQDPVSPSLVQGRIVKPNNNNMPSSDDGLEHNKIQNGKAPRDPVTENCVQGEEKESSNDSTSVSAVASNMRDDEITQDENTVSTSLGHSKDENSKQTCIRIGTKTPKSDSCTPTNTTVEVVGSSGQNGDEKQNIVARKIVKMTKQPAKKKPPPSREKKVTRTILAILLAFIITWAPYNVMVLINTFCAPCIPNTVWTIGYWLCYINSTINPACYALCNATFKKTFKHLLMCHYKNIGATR
UniProt P20309, whole entry, looked up: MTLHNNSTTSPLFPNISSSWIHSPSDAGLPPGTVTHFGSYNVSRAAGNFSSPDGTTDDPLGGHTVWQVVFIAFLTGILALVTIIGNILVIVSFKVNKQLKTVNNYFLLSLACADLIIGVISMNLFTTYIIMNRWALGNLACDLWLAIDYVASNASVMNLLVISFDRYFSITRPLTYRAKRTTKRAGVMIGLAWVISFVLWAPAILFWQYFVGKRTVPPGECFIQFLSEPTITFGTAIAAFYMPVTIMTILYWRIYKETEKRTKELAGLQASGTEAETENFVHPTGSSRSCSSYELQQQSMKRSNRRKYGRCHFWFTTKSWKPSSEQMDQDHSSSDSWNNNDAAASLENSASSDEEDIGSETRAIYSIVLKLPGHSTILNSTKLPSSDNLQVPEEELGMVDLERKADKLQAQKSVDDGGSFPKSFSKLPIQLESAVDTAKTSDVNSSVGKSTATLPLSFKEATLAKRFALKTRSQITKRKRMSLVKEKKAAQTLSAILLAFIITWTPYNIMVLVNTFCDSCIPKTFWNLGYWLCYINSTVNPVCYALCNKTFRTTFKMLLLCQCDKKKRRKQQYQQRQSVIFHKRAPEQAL
UniProt P08173, whole entry, looked up: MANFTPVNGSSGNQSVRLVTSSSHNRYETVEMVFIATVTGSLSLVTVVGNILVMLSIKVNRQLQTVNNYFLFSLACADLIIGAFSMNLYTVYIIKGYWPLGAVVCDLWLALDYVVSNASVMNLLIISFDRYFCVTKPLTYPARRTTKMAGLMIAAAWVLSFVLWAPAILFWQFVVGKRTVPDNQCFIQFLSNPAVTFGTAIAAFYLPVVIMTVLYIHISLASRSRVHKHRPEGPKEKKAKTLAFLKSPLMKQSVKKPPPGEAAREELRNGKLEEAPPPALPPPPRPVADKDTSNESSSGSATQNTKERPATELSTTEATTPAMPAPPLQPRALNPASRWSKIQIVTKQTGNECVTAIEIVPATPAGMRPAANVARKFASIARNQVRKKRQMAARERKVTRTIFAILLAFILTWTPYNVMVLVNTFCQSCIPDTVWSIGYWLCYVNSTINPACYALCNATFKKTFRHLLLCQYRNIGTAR
UniProt P11229: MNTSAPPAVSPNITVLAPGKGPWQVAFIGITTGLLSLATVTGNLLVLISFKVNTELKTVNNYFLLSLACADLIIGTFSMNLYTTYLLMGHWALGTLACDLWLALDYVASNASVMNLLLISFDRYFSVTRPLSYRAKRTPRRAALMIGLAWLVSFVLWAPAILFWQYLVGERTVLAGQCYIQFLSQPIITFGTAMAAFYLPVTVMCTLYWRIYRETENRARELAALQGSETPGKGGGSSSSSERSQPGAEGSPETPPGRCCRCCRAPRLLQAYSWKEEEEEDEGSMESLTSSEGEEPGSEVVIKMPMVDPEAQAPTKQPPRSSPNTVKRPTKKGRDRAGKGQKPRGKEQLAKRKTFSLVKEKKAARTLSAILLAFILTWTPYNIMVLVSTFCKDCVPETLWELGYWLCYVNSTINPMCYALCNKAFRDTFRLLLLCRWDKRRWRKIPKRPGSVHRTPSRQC

Legend:
[1] = tested on: acetylcholine-induced bronchoconstriction; assay: Acetylcholine induced bronchoconstriction in anesthetized guinea pigs; format: in vivo, guinea pig; details: 0.1 mg/kg intratracheally
[2] = target: muscarinic receptors (mainly M1) of rat brain cortex membranes (Rattus norvegicus, UniProt P08482); assay: Receptor binding, [3H]QNB, rat cortical membrane preparation; details: Table 8; for Ki: read-out: Ki (nM), Average ± SD, [3H]QNB, rat cortical membranes
[3] = tested on: guinea pig tracheal rings; assay: Guinea pig trachea assay, pA2 against carbachol (Schild plot); details: tissue from four animals
[4] = tested on: guinea pig ileum longitudinal muscle strips; assay: Guinea pig ileum longitudinal muscle assay, pA2 against acetylcholine (Schild plot); details: tissue samples from four animals
[5] = target: cloned human muscarinic receptor subtype M2 (Homo sapiens, UniProt P08172); assay: Receptor binding, [3H]NMS, cloned human muscarinic receptor M2; details: for receptor binding affinity pKi, M2: mean ± SD of 3 experiments; for Hill slope, M2: numbers in parentheses
[6] = In vitro stability in rat plasma; details: 37° C., pH 7.4
[7] = tested on: guinea pig ileum (M3 muscarinic receptors); assay: Guinea pig ileum contraction assay, pA2 against carbachol; details: carbachol as agonist, 4-6 strips, mean ± SD
[8] = target: cloned human muscarinic receptor subtype M3 (Homo sapiens, UniProt P20309); assay: Receptor binding, [3H]NMS, cloned human muscarinic receptor M3; details: for receptor binding affinity pKi, M3: mean ± SD of 3 experiments; for Hill slope, M3: numbers in parentheses
[9] = target: cloned human muscarinic receptor subtype M4 (Homo sapiens, UniProt P08173); assay: Receptor binding, [3H]NMS, cloned human muscarinic receptor M4; details: for receptor binding affinity pKi, M4: mean ± SD of 3 experiments; for Hill slope, M4: numbers in parentheses
[10] = target: cloned human muscarinic receptor subtype M1 (Homo sapiens, UniProt P11229); assay: Receptor binding, [3H]NMS, cloned human muscarinic receptor M1; details: for receptor binding affinity pKi, M1: mean ± SD of 3 experiments; for Hill slope, M1: numbers in parentheses
[11] = tested on: rabbit eyes (pupil size); assay: Mydriatic effect of soft glycopyrrolates in rabbit eyes; set-up: AUC^eff(0-144 h): unit not given beside the values; details: for Rmax (%): 100 μl topical, % change in pupil size at 1 h
[12] = tested on: cloned human muscarinic receptor subtypes M1-M4; assay: Receptor binding at cloned human muscarinic receptors, values stated across subtypes (ranges, M3/M2 selectivity)
[13] = In vitro stability in rat blood; details: 37° C., pH 7.4
[14] = tested on: rabbit eyes (pupil size); assay: In vivo mydriatic studies of zwitterionic isomers in rabbit eyes; set-up: AUC^eff0-168 h: unit not given beside the values; details: for Rmax (%): 0.1 mL topical, maximum % change in pupil size
[15] = Elimination after i.v. administration in rats

## CCCCCCOC(=O)C[N@+]1(C)CC[C@@H](OC(=O)[C@](O)(c2ccccc2)C2CCCC2)C1
[1]
  effect on acetylcholine-induced bronchoconstriction: protective effect
[2]
  Hill slope: −1.24 ± 0.04
  Ki: 15 nM

## CCCCCCOC(=O)C[N@@+]1(C)CC[C@H](OC(=O)[C@](O)(c2ccccc2)C2CCCC2)C1
[2]
  Hill slope: −1.19 ± 0.05
  Ki: 13 nM
[3]
  pA2, Trachea: 8.21
[4]
  pA2, Ileum: 8.14

## CCOC(=O)C[N+]1(C)CCC(OC(=O)[C@](O)(c2ccccc2)C2CCCC2)C1.[Br-] (stereo partly drawn)
[5]
  receptor binding affinity pKi, M2: 8.84 ± 0.34
  Hill slope, M2: (0.92 ± 0.01)
[6]
  half-life t1/2, min: 0.567 h and 0.563 ± 0.08 h
  pseudo-first-order rate constant k × 10^−3, min^−1: 20.9 ± 3.0 × 10^−3 min^−1
[7]
  pA2: 8.55±0.16
[8]
  receptor binding affinity pKi, M3: 8.74 ± 0.02
  Hill slope, M3: (1.09 ± 0.15)
[9]
  receptor binding affinity pKi, M4: 8.85 ± 0.13
  Hill slope, M4: (0.89 ± 0.02)
[10]
  receptor binding affinity pKi, M1: 8.67 ± 0.16
  Hill slope, M1: (0.86 ± 0.08)
[11]; conc. 0.5%
  AUC^eff(0-144 h): 1170 ± 308
  Rmax (%): 53.96 ± 13.27%
[11]; conc. 1%
  AUC^eff(0-144 h): 1532 ± 526
  Rmax (%): 56.04 ± 11.69%
[11]; pharmacodynamically equipotent doses
  duration of mydriatic activity: < 48 h
[12]
  pKi, range over subtypes M1-M4: 8.7-8.9
  Selectivity M3/M2 (affinity ratio): 1.1 ± 1.1 times
[13]
  half-life t1/2, min: 1.43 h and 1.44 ± 0.02 h
  pseudo-first-order rate constant k × 10^−3, min^−1: 8.0 ± 0.1 × 10^−3 min^−1

## CCOC(=O)C[N+]1(C)CCC(OC(=O)C(O)(c2ccccc2)C2CCCC2)C1.[Br-] (racemic)
[5]
  receptor binding affinity pKi, M2: 7.32 ± 0.07
  Hill slope, M2: (1.23 ± 0.06)
[6]
  half-life t1/2, min: 0.733 h
  pseudo-first-order rate constant k × 10^−3, min^−1: 15.8 ± 0.2 × 10^−3 min^−1
[7]
  pA2: 7.36 ± 0.34
[8]
  receptor binding affinity pKi, M3: 7.54 ± 0.15
  Hill slope, M3: (1.18 ± 0.08)
[9]
  receptor binding affinity pKi, M4: 7.94 ± 0.09
  Hill slope, M4: (1.18 ± 0.09)
[10]
  receptor binding affinity pKi, M1: 7.51 ± 0.17
  Hill slope, M1: (0.91 ± 0.09)
[11]; conc. 0.5%
  AUC^eff(0-144 h): 596 ± 274
  Rmax (%): 44.65 ± 13.99%
[11]; conc. 1%
  AUC^eff(0-144 h): 645 ± 409
  Rmax (%): 58.33 ± 12.27%
[12]
  Selectivity M3/M2 (affinity ratio): 1.8 ± 0.7 times
[13]
  half-life t1/2, min: 1.62 h and 1.61 ± 0.0483 h
  pseudo-first-order rate constant k × 10^−3, min^−1: 7.2 ± 0.2 × 10^−3 min^−1

## (2R,1′R,3′S) 3-(2-cyclopentyl-2-phenyl-2-hydroxyacetoxy)-1-(carboxymethyl)-1-methylpyrrolidinium inner salt
[5]
  receptor binding affinity pKi, M2: 7.39 ± 0.09
  Hill slope, M2: (0.80 ± 0.22)
[7]
  pA2: 7.33 ± 0.28
[8]
  receptor binding affinity pKi, M3: 8.04 ± 0.01
  Hill slope, M3: (0.96 ± 0.03)
[9]
  receptor binding affinity pKi, M4: 8.15 ± 0.06
  Hill slope, M4: (1.01 ± 0.06)
[10]
  receptor binding affinity pKi, M1: 7.98 ± 0.01
  Hill slope, M1: (1.02 ± 0.03)
[12]
  Selectivity M3/M2 (affinity ratio): 5.2 ± 0.7 times
[14]; conc. 0.1%
  AUC^eff0-168 h: 216 ± 29
  Rmax (%): 43.90 ± 7.63%

## C[N+]1(CC(=O)[O-])CCC(OC(=O)[C@](O)(c2ccccc2)C2CCCC2)C1 (stereo partly drawn)
[5]
  receptor binding affinity pKi, M2: 7.48 ± 0.12
  Hill slope, M2: (0.95 ± 0.11)
[8]
  receptor binding affinity pKi, M3: 8.12 ± 0.10
  Hill slope, M3: (0.80 ± 0.01)
[9]
  receptor binding affinity pKi, M4: 8.23 ± 0.12
  Hill slope, M4: (1.02 ± 0.10)
[10]
  receptor binding affinity pKi, M1: 8.11 ± 0.16
  Hill slope, M1: (1.12 ± 0.25)
[12]
  pKi, range over subtypes M1-M4: 7.5-8.2
  Selectivity M3/M2 (affinity ratio): 4.4 ± 0.3 times
[15]
  t1/2 of excretion (unchanged, through urine): 0.167 to 0.25 h
[14]; conc. 0.01%
  AUC^eff0-168 h: 73 ± 24
  Rmax (%): 31.00 ± 7.14%
[14]; conc. 0.1%
  AUC^eff0-168 h: 182 ± 40
  Rmax (%): 50.34 ± 7.92%
